Where a name gives a salt, the structure may show the parent alone. Where a SMILES comes first, the peptide text is derived from it. [ ]: non-standard residue; d: D form.
Tested on: C57 male mice
Conditions: 400 mpk and 800 mpk IP, irradiation 90 min after administration
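Note: mice aged 8-10 weeks, weighing 20-22 g, with deaths logged and survival rate computed on day 30.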

How did the “toxic reactions after intraperitoneal injection” value turn out when `NC(=O)[C@H](CS)NC(=O)[C@H](N)CS` [Example 17, (S)-2-amino-N—((R)-1-amino-3-mercapto-1-oxopropan-2-yl)-3-mercaptopropanamide trifluoroacetate] (H-[dC]-Cys-NH2) was run?
The value was “muscle tremors and other toxic reactions were observed”.
